Among the data in patent US10131664B2 (Celgene Quanticel Research, Inc., priority 2013, dated 2018) are IC50 values, retold here.

One test deals with full-length human LSD1 (Homo sapiens (Human), UniProt O60341). Description: In vitro enzyme inhibition assay LSD-1 (TR-FRET). Conditions: read-out: LSD1 IC50, 0.1 nM LSD1, 50 nM H3K4me1-biotin peptide, 2 μM FAD, pH7.3. Format: biochemical. (In general: Time-resolved FRET reads energy transfer from a long-lived donor to a nearby acceptor.)
The test system of a further test is THP-1 (AML) cells. Description: LSD1 CD11b cellular assay (flow cytometry). Conditions: read-out: Cellular IC50, CD11b expression in THP-1 (AML) cells, 4 days incubation. In general terms: A flow cytometer gives signals particle by particle.

Consider `Cn1cc2nc(-c3cnc(N4CCC(N)CC4)nc3-c3ccc(C#N)cc3)ccc2n1`, for which the IC50 on full-length human LSD1 was less than 100 nM; with THP-1 (AML) cells, 100 to 1000 nM.

A word on the IC50: it is the point on the concentration scale where inhibition reaches its midpoint.
